{
  "source": "patent US6331565A",
  "about": "“Dicaffeoylquinic acid for treating hepatitis B and the diseases associated with retrovirus, and the new caffeoylquinic acid derivatives” (Institute of Radiation Medicine Academy of Military Medical …, priority 1996, dated 2001)",
  "key": {"HBeAg": {"test_system": "HBeAg", "assay_type": "cell-based, HBV", "protocol": "(§1) The cultures were passenged by trypsinization every 4 days.\n(§2) HBsAg and HBeAg in the culture medium were determined according to the protocol respectively. The culture medium (200 μl) was absorbed on beads containing antibody to HBsAg/HBeAg in the presence of the conjugate. After overnight incubation, the beads were washed 6 times with […] PBS containing 0.05% Tween-80 and incubated with 200 μl of [^125 I] anti-HBs(Hbe) overnight. The beads were washed 6 times as above. The amounts HBsAg/HBeAg as measure of cpm of [^125 I] labeled immunocomplex was counted on γ-counter."}, "HBsAg": {"test_system": "HBsAg", "assay_type": "cell-based, HBV", "protocol": "as §1, §2"}, "DHBV": {"test_system": "DHBV", "assay": "anti-DHBV test in ducks (serum DHBV DNA dot blot)", "assay_type": "in vivo, DHBV in Peking (Beijing) ducks", "settings": "5 mg/kg, P5 (day 5 after withdrawal), X ± SD, n = 7", "protocol": "One-day-old ducklings were infected with a 200 μl intravenous injection of DHBV-positive serum containing 10^11 viral genome equivalents per milliliter. Treatment began when ducklings were 7 days old. A total 89 seven-day-old viraemic ducks were distributed at random into five groups. Three groups were administered for 14 days with compound A at the dosage of 5, 12.5, and 50 mg.kg of body weight^-1.day^-1, given orally in two equal (morning and evening) dose dissolved in normal saline (NS). Other two groups were treated with NS and Acyelorvir (ACV) at the dosage of 50 mg.kg of body weight^-1.day^-1 instead of compound A respectively. Post-treatment follow-up was carried over a period of 5 days. Blood samples were obtained repectively from the leg vein of all ducks and stored at -70° C. after serum separation, prior to treatment, weekly during the treatment, and for 5 days after cessation of treatment. They were screened for presence of DHBV DNA by dot blot hybridization.\nDHBV DNA in serum was analyzed by molecular hybridization using full length DHBV DNA clones in PB325. The DHBV DNA insert was purified by agarose gel electrophoresis after digestion with EcoRI. The DHBV DNA was radiolabeled with α^32 P-dCTP random oligopriming with Klenow fragment. Dot blot hybridization was carried out by the method of Scotto et al. Briefly, an aliquot (200 μl) serum was spotted onto a nylon membrane (Hybond-N, Amersham International, England) in dot blot manifold and denatured with 0.5 M NaOH--NaCl at room temperature for 30 min. Each spotted sample was neutralized in 1M Tris.HCl-1.5M NaCl (pH8.0). The DNA on the membrane was fixed by heating at 80° C. for 2 h, and prehybridization at 37° C. overnight in 50% formamide, 5×Denhardt's, 6×SSC,[…], 0.5% SDS and 10 mg/ml of calf thymus DNA. Hybridization was initiated by adding DHBV [^32 P] DNA probes at 10^6 cpm/ml at the same prehybridization conditions overnight. The membrane was washed in 3×SSC-0.1% SDS at room temperature, 42° C. and 65° C. for 10 min respectively. After hybridization the membranes were air-dried and exposed for periods of up to 14 days at -70° C. with Kodak film with an enhancer screen. The amount of viral DNA were assayed by both densitometry and image analysis of autoradiographic membranes."}},
  "note": "Like-named read-outs stand apart in the source and are kept apart here.",
  "data": [
    {"smiles": "O=C(/C=C/c1ccc(O)c(O)c1)OC1CC(OC(=O)/C=C/c2ccc(O)c(O)c2)(C(=O)O)CC(O)C1O", "note": "(stereo not drawn) [Compound A, 1,5-di-O-caffeoylquinic acid]", "values": [
      {"measurement": "HBeAg cpm", "setting": "HBeAg; 7.81 μg/ml, day 4", "value": "4764.0 ± 212.0", "unit": "cpm"},
      {"measurement": "HBeAg cpm", "setting": "HBeAg; 7.81 μg/ml, day 8", "value": "7400.7 ± 163.3", "unit": "cpm"},
      {"measurement": "HBeAg cpm", "setting": "HBeAg; 7.81 μg/ml, day 12", "value": "7188.3 ± 197.5", "unit": "cpm"},
      {"measurement": "HBeAg cpm", "setting": "HBeAg; 15.63 μg/ml, day 4", "value": "4264.0 ± 192.1", "unit": "cpm"},
      {"measurement": "HBeAg cpm", "setting": "HBeAg; 15.63 μg/ml, day 8", "value": "5707.0 ± 567.8", "unit": "cpm"},
      {"measurement": "HBeAg cpm", "setting": "HBeAg; 15.63 μg/ml, day 12", "value": "6211.5 ± 183.3", "unit": "cpm"},
      {"measurement": "HBeAg cpm", "setting": "HBeAg; 31.25 μg/ml, day 4", "value": "3503.4 ± 328.9", "unit": "cpm"},
      {"measurement": "HBeAg cpm", "setting": "HBeAg; 31.25 μg/ml, day 8", "value": "4906.8 ± 196.4", "unit": "cpm"},
      {"measurement": "HBeAg cpm", "setting": "HBeAg; 31.25 μg/ml, day 12", "value": "5991.2 ± 291.9", "unit": "cpm"},
      {"measurement": "HBeAg cpm", "setting": "HBeAg; 62.5 μg/ml, day 4", "value": "3181.4 ± 181.7", "unit": "cpm"},
      {"measurement": "HBeAg cpm", "setting": "HBeAg; 62.5 μg/ml, day 8", "value": "4631.7 ± 196.8", "unit": "cpm"},
      {"measurement": "HBeAg cpm", "setting": "HBeAg; 62.5 μg/ml, day 12", "value": "4603.5 ± 66.76", "unit": "cpm"},
      {"measurement": "HBeAg cpm", "setting": "HBeAg; 125 μg/ml, day 4", "value": "2867.7 ± 53.8", "unit": "cpm"},
      {"measurement": "HBeAg cpm", "setting": "HBeAg; 125 μg/ml, day 8", "value": "4052.1 ± 150.6", "unit": "cpm"},
      {"measurement": "HBeAg cpm", "setting": "HBeAg; 125 μg/ml, day 12", "value": "4014.8 ± 82.8", "unit": "cpm"},
      {"measurement": "HBeAg cpm", "setting": "HBeAg; 250 μg/ml, day 4", "value": "2034.2 ± 100.3", "unit": "cpm"},
      {"measurement": "HBeAg cpm", "setting": "HBeAg; 250 μg/ml, day 8", "value": "3081.5 ± 181.7", "unit": "cpm"},
      {"measurement": "HBeAg cpm", "setting": "HBeAg; 250 μg/ml, day 12", "value": "3025.4 ± 74.0", "unit": "cpm"},
      {"measurement": "suppression of HBeAg", "setting": "HBeAg; 4, 8 and 12 days", "value": "marked suppression"},
      {"measurement": "HBsAg cpm", "setting": "HBsAg; 7.81 μg/ml, day 4", "value": "1032.6 ± 10.8", "unit": "cpm"},
      {"measurement": "HBsAg cpm", "setting": "HBsAg; 7.81 μg/ml, day 8", "value": "979.3 ± 42.3", "unit": "cpm"},
      {"measurement": "HBsAg cpm", "setting": "HBsAg; 7.81 μg/ml, day 12", "value": "617.0 ± 27.2", "unit": "cpm"},
      {"measurement": "HBsAg cpm", "setting": "HBsAg; 15.63 μg/ml, day 4", "value": "941.1 ± 27.2", "unit": "cpm"},
      {"measurement": "HBsAg cpm", "setting": "HBsAg; 15.63 μg/ml, day 8", "value": "888.9 ± 16.3", "unit": "cpm"},
      {"measurement": "HBsAg cpm", "setting": "HBsAg; 15.63 μg/ml, day 12", "value": "574.6 ± 18.8", "unit": "cpm"},
      {"measurement": "HBsAg cpm", "setting": "HBsAg; 31.25 μg/ml, day 4", "value": "824.2 ± 29.7", "unit": "cpm"},
      {"measurement": "HBsAg cpm", "setting": "HBsAg; 31.25 μg/ml, day 8", "value": "808.5 ± 18.9", "unit": "cpm"},
      {"measurement": "HBsAg cpm", "setting": "HBsAg; 31.25 μg/ml, day 12", "value": "546.5 ± 8.7", "unit": "cpm"},
      {"measurement": "HBsAg cpm", "setting": "HBsAg; 62.5 μg/ml, day 4", "value": "717.5 ± 12.2", "unit": "cpm"},
      {"measurement": "HBsAg cpm", "setting": "HBsAg; 62.5 μg/ml, day 8", "value": "699.7 ± 20.2", "unit": "cpm"},
      {"measurement": "HBsAg cpm", "setting": "HBsAg; 62.5 μg/ml, day 12", "value": "464.2 ± 7.50", "unit": "cpm"},
      {"measurement": "HBsAg cpm", "setting": "HBsAg; 125 μg/ml, day 4", "value": "618.5 ± 25.4", "unit": "cpm"},
      {"measurement": "HBsAg cpm", "setting": "HBsAg; 125 μg/ml, day 8", "value": "617.7 ± 20.6", "unit": "cpm"},
      {"measurement": "HBsAg cpm", "setting": "HBsAg; 125 μg/ml, day 12", "value": "416.1 ± 14.7", "unit": "cpm"},
      {"measurement": "HBsAg cpm", "setting": "HBsAg; 250 μg/ml, day 4", "value": "563.5 ± 23.1", "unit": "cpm"},
      {"measurement": "HBsAg cpm", "setting": "HBsAg; 250 μg/ml, day 8", "value": "480.8 ± 46.5", "unit": "cpm"},
      {"measurement": "HBsAg cpm", "setting": "HBsAg; 250 μg/ml, day 12", "value": "367.5 ± 6.70", "unit": "cpm"},
      {"measurement": "suppression of HBsAg", "setting": "HBsAg; 4, 8 and 12 days", "value": "marked suppression"},
      {"measurement": "DHBV DNA, grayness of the dot", "setting": "DHBV", "value": "2.5 ± 1.5", "unit": "K Grayness"}
    ]}
  ]
}
